# Yeast mating assay 2: variants of the scFv Ab-95

Data: MIT Lincoln Laboratory AlphaSeq set, Engelhart et al. 2022, doi:10.1038/s41597-022-01779-4, as distributed in FLAb.

Target: peptide PDVDLGDISGINAS, taken from heptad repeat 2 (HR2) of SARS-CoV-2 spike.

Each scFv is VH, a (GGGGS)3 linker, VL, as in the parent Ab-95, and differs from it in the CDRs of the light chain only.
VH: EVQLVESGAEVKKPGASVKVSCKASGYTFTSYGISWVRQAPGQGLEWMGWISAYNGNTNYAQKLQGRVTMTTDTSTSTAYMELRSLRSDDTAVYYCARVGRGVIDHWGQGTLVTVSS
VL: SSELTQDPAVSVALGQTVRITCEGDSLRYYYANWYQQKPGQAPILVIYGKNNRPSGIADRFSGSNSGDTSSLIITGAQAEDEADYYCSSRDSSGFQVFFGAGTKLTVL

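Phage display of a naive human antibody library on the peptide gave the parent. In library AAYL52, one, two or three CDR residues were substituted; doubles and triples were drawn at random. In AlphaSeq, yeast of one mating type display the scFv and yeast of the other type display the target. Pairs that bind mate more often; barcode pairs of the diploids are counted by sequencing. A regression on co-assayed BCL2-family reference pairs converts the normalised counts of each replicate to an apparent Kd. Each pool was mated in three replicate cultures.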

Variants are written as CDR1, CDR2 and CDR3 of the light chain (limits as in the source). Parent: EGDSLRYYYAN, GKNNRPS, SSRDSSGFQVF.
Scale: log10 of Kd in nM, estimated from mating counts; low values are strong binders.
The mean shown is taken over the replicates in which the pair was detected.
Where no diploid with the target was found in any replicate, the entry reads "no signal": below detection, most likely a poor binder, though not proof of it.
As a blank, each scFv also met three strains without target: over library AAYL52, 28% of these pairings were detected, typically at 3.91 and seldom below 2.90.
In this assay the parent's reference entry averaged 2.31; its copy inside this library read 2.25.

| CDR-L1 | CDR-L2 | CDR-L3 | mean log10 Kd (nM) | detected |
|---|---|---|---|---|
| EGDSLRYYYAN | GKNNRPS | SSHDSSLFRVF | 2.42 | 3 of 3 |
| EGDSLRYYYAG | GKNNRPS | SSRLSSGFQVR | no signal | 0 of 3 |
| EGDHLRYYYYN | GKNNRPS | SSRDQSGFQVF | 4.19 | 2 of 3 |
| EGDSLRFYYAN | GANNRPS | SSRDSSGQQVF | 3.58 | 3 of 3 |
| EGDSLRYYYAN | GKNNRQL | SSRDSSGFQVF | 2.69 | 3 of 3 |
| GGDSSRYYYAN | GKMNRPS | SSRDSSGFQVF | 4.24 | 1 of 3 |
| EGDSLHYYYAN | GKNNRPS | SSRDSLGFAVF | 2.47 | 3 of 3 |
| EGDSLRYYYAN | GKNNRPS | SEDFSSGFQVF | no signal | 0 of 3 |
| EGDSLRYYYWN | GKNNRPS | TPRDSSGFQVF | no signal | 0 of 3 |
| EGKSLRYYYAN | GKNNRPR | YSRDSSGFQVF | 3.78 | 3 of 3 |
| EGDSLRYYYAN | TKNNRPS | SSRDSSGFQVD | 4.35 | 3 of 3 |
| EGDSLRYYYAN | GCNNGLS | SSRDSSGFQVF | no signal | 0 of 3 |
| EGDSDRYYYAN | GKNNRPS | SSFDSSGFQVF | no signal | 0 of 3 |
| EGDSNRYYYAN | GKNNRPS | SSRDSDGFGVF | no signal | 0 of 3 |
| EGESLRYYYWN | GKNNNPS | SSRDSSGFQVF | 4.52 | 2 of 3 |
| EGDSLRYYYAN | GKNNHPS | LSRDQSGFQVF | 3.31 | 3 of 3 |
| EGDSLRYYYAN | GKNNRPS | SHPDSSGFIVF | no signal | 0 of 3 |
| EGDSARYYYAN | GKNNMPS | SSRPSSGFQVF | 4.93 | 2 of 3 |
| EGDSLRYYNAN | GKNNRPS | ESRDSRGFQVF | 1.77 | 3 of 3 |
| EGDSLRYYYAN | GLNNRPS | SSDDSSHFQVF | no signal | 0 of 3 |
| EGDSLRYYYAN | GKNNSPS | SSRDSSGFQVH | 3.14 | 3 of 3 |
| EGDSLRYYYAN | GKNNRPS | SSRFISLFQVF | 2.75 | 3 of 3 |
| EGDSLRYSYAN | GKNNRPS | SSRDSSGFHLF | 1.05 | 3 of 3 |
| EGDSLRYCYAN | GKEWRPS | SSRDSSGFQVF | 3.40 | 1 of 3 |
| RGDSLRYYYAN | GKNNRPS | SSRDSSGFAVF | 2.47 | 3 of 3 |
| EEDSLRYYYAN | GKNNHPS | SSRDSSGFQVL | 3.84 | 1 of 3 |
| EGGSLRYYYAN | GKNNFPS | SSRDSSGFQEF | 2.32 | 1 of 3 |
| EGDSLRYYYAG | GKNNRPS | SSRDASGFKVF | 3.79 | 3 of 3 |
| EDDSLRYLYAN | GKNDRPS | SSRDSSGFQVF | 3.23 | 3 of 3 |
| EGDSLRYCYRN | GKNNRPS | SSRDSSGHQVF | no signal | 0 of 3 |
| EGDSMRIYYAN | GKNNRPS | SSRDSSGFPVF | 4.69 | 2 of 3 |
| EGDFLRYYYAN | GKNNWPS | SSRDSSGFQVF | 5.11 | 2 of 3 |
| EGDSLRYYYAN | GKNNMPS | SSRDSSGWQVF | no signal | 0 of 3 |
| GGDSLRYYYAN | GKNNRPG | SSRDSSGFDVF | 2.18 | 3 of 3 |
| TGDSWRDYYAN | GKNNRPS | SSRDSSGFQVF | 2.99 | 3 of 3 |
| PGDSLRYYYAN | GKNNRPS | SSRDSSPFQVF | no signal | 0 of 3 |
| EGDSLRMYYAN | GKNNRPS | SSRDSWGFPVF | 2.79 | 3 of 3 |
| KGDQLRYYYAN | GKNNRPS | SSRDSSGFGVF | 4.17 | 1 of 3 |
| EGDSLRYYKAN | EKNPRPS | SSRDSSGFQVF | no signal | 0 of 3 |
| EGDSLRYAYAN | GKNNRPC | SSRDSSGFGVF | 3.27 | 3 of 3 |
| EGDSLPYYYAG | GKNNTPS | SSRDSSGFQVF | 3.29 | 3 of 3 |
| EGDSPRYYYAN | GKNNRPS | SSRDSSGKQVP | 2.82 | 1 of 3 |
| EGDSLRYYCAN | GKNNRPS | SWRDSSGFQGF | 2.10 | 3 of 3 |
| EGQSLRYYYAN | GKNNTPS | SSRDSSGFGVF | no signal | 0 of 3 |
| EGDELRYYYAN | GKNNRPS | SSIDSSGFYVF | 4.13 | 1 of 3 |
| EGDSLRYYYAN | GKNNRPS | SSRDSQDFDVF | 3.55 | 3 of 3 |
| EGDSLRYYPAN | GKNNRPS | SVRDSSGFQVK | 2.33 | 3 of 3 |
| EGDNCRYYYAN | GKNNRPS | SSRDSIGFQVF | 4.96 | 1 of 3 |
| EGDSPRYYYAN | GCVNRPS | SSRDSSGFQVF | 3.86 | 2 of 3 |
| EGQLLRYYYAN | GKNNRPS | SSMDSSGFQVF | 3.72 | 1 of 3 |
| EGDSGRYYYAN | GKNFRPS | SSRDSSGFSVF | 4.22 | 2 of 3 |

Again, the first 6 entries without any signal:

CDR-L1,CDR-L2,CDR-L3,mean log10 Kd (nM),detected
EGDSLRYYYAG,GKNNRPS,SSRLSSGFQVR,no signal,0 of 3
EGDSLRYYYAN,GKNNRPS,SEDFSSGFQVF,no signal,0 of 3
EGDSLRYYYWN,GKNNRPS,TPRDSSGFQVF,no signal,0 of 3
EGDSLRYYYAN,GCNNGLS,SSRDSSGFQVF,no signal,0 of 3
EGDSDRYYYAN,GKNNRPS,SSFDSSGFQVF,no signal,0 of 3
EGDSNRYYYAN,GKNNRPS,SSRDSDGFGVF,no signal,0 of 3